Like-named read-outs stand apart in the source and are kept apart here.
Key:
NaV1.5 [1] = biological target: T1, NaV1.5 (Homo sapiens, UniProt Q14524); experiment: IonWorks Quattro NaV1.5 screen (AstraZeneca, Q)
hERG [2] = biological target: T2, hERG (Homo sapiens, UniProt Q12809); experiment: cell-based
hERG [3] = biological target: T2, hERG; experiment: IonWorks Quattro hERG screen (AstraZeneca, Q)
KCNQ1/MinK = KCNQ1/MinK (Homo sapiens, UniProt P51787); experiment: IonWorks Quattro KCNQ1/MinK screen (AstraZeneca, Q); conditions: −log10 of IC50 in Molar, Hill n = 1, 0.0 = pIC50 ≤ 0 fitted
Kv4.3/KChIP2.2 = biological target: T3, Kv4.3/KChIP2.2 (Homo sapiens, UniProt Q9UK17); experiment: IonWorks Quattro Kv4.3/KChIP2.2 screen (AstraZeneca, Q); format: cell-based; conditions: −log10 of IC50 in Molar, Hill n = 1, 0.0 = pIC50 ≤ 0 fitted
T3 sequence (Q9UK17 1-655): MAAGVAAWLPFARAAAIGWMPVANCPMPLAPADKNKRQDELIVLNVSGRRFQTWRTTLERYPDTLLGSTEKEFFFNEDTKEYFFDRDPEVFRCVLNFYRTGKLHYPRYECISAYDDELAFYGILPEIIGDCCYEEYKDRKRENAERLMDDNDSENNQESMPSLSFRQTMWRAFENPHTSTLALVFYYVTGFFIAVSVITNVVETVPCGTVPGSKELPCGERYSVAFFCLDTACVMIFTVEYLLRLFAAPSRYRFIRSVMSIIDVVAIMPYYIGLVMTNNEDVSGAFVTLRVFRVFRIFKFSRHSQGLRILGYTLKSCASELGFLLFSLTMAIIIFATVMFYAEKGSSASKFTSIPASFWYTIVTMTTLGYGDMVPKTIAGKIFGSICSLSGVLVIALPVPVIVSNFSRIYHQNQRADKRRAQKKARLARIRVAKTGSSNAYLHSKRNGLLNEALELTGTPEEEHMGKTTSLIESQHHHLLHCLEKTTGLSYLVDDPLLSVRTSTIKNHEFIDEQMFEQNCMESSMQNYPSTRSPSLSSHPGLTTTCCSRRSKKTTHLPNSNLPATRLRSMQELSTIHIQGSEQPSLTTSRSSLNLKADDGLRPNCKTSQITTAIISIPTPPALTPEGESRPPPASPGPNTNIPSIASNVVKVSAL
T3 sequence (Q9NS61 1-270 partner): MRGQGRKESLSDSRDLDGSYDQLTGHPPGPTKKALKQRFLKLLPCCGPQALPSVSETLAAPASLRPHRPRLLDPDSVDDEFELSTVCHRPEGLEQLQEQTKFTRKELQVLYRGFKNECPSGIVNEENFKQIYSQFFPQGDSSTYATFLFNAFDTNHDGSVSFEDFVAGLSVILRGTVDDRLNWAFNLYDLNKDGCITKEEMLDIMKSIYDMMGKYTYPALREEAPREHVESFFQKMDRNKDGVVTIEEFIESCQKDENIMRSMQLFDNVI

Amino acid sequences for entries named in this document (tags omitted). A change or cut given only in a name is not applied to a line headed by its entry.
UniProt Q14524, whole entry: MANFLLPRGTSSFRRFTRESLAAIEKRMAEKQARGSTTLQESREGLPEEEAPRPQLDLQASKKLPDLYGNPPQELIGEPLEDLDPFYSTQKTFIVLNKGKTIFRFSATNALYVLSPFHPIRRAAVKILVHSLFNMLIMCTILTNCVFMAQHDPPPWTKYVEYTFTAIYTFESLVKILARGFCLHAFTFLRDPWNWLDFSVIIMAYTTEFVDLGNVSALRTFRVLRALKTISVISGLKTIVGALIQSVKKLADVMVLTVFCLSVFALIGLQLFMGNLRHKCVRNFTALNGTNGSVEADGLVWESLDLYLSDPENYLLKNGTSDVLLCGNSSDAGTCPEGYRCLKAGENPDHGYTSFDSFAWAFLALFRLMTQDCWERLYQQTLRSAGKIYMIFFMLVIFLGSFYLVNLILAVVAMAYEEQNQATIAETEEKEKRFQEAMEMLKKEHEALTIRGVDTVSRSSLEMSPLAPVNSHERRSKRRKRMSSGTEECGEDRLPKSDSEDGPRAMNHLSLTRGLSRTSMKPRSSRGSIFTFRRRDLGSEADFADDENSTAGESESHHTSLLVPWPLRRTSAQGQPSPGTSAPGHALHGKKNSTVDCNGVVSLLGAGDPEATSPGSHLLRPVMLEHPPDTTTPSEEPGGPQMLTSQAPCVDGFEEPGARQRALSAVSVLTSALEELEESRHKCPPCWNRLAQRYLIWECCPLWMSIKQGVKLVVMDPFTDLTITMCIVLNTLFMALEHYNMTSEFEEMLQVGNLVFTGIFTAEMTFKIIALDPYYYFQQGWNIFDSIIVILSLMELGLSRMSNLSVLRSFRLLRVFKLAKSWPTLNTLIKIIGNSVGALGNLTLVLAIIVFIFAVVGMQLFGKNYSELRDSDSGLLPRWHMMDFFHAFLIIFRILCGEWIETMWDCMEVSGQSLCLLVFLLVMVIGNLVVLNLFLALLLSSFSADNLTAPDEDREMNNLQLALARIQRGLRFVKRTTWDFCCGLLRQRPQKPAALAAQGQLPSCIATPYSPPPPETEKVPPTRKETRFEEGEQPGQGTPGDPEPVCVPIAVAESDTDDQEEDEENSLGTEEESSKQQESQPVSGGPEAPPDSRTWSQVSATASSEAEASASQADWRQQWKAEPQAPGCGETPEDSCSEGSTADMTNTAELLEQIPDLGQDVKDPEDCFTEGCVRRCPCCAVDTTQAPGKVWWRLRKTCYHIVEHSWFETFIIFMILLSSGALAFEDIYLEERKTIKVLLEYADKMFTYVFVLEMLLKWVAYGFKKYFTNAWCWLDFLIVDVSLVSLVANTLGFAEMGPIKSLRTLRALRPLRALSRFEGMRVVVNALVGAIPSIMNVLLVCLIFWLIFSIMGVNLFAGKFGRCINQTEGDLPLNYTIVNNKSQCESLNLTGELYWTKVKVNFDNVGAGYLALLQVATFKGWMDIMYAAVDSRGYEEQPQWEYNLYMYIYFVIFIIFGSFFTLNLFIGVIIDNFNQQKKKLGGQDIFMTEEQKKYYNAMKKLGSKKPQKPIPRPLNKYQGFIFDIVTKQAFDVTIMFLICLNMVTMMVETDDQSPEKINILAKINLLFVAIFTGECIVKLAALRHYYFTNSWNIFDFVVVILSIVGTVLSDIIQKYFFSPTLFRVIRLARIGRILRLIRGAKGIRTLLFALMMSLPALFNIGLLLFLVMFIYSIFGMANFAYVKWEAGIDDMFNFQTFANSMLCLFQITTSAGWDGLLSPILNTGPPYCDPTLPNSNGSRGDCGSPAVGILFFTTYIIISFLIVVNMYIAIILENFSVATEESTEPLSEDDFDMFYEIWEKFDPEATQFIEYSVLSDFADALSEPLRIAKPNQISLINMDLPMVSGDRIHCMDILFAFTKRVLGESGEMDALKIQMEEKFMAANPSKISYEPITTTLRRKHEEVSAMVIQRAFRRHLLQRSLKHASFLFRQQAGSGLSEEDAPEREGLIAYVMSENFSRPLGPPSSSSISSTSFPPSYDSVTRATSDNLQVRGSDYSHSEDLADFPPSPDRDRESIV
UniProt Q12809: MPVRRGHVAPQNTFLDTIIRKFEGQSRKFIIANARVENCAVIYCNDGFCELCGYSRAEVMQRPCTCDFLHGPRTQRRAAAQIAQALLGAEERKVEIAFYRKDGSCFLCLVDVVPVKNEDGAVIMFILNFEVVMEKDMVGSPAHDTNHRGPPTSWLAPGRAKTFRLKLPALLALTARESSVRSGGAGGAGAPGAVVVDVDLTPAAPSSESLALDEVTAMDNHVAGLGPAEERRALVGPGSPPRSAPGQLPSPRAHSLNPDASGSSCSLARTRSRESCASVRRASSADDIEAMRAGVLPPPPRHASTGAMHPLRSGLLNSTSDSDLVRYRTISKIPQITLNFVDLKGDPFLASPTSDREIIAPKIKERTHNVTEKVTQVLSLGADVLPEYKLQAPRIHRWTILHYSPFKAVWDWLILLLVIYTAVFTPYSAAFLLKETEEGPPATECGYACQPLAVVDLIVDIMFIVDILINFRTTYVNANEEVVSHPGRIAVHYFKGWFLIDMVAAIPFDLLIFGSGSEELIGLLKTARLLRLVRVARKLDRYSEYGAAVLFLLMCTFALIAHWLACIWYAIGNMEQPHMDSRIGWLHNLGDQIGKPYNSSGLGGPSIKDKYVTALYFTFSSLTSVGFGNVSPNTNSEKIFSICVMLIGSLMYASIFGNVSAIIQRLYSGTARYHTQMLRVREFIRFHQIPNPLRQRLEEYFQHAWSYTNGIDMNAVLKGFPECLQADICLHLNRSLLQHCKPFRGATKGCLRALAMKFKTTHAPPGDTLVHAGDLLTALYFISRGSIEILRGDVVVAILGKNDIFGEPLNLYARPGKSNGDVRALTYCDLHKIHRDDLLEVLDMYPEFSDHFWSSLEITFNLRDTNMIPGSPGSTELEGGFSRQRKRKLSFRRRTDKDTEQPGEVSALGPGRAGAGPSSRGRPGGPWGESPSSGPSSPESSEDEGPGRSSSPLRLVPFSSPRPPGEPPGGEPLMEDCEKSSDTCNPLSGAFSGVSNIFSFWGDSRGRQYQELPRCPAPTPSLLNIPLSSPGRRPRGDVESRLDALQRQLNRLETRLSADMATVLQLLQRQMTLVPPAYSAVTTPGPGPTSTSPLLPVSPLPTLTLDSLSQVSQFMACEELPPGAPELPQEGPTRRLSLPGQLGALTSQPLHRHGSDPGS
UniProt Q13936, whole entry: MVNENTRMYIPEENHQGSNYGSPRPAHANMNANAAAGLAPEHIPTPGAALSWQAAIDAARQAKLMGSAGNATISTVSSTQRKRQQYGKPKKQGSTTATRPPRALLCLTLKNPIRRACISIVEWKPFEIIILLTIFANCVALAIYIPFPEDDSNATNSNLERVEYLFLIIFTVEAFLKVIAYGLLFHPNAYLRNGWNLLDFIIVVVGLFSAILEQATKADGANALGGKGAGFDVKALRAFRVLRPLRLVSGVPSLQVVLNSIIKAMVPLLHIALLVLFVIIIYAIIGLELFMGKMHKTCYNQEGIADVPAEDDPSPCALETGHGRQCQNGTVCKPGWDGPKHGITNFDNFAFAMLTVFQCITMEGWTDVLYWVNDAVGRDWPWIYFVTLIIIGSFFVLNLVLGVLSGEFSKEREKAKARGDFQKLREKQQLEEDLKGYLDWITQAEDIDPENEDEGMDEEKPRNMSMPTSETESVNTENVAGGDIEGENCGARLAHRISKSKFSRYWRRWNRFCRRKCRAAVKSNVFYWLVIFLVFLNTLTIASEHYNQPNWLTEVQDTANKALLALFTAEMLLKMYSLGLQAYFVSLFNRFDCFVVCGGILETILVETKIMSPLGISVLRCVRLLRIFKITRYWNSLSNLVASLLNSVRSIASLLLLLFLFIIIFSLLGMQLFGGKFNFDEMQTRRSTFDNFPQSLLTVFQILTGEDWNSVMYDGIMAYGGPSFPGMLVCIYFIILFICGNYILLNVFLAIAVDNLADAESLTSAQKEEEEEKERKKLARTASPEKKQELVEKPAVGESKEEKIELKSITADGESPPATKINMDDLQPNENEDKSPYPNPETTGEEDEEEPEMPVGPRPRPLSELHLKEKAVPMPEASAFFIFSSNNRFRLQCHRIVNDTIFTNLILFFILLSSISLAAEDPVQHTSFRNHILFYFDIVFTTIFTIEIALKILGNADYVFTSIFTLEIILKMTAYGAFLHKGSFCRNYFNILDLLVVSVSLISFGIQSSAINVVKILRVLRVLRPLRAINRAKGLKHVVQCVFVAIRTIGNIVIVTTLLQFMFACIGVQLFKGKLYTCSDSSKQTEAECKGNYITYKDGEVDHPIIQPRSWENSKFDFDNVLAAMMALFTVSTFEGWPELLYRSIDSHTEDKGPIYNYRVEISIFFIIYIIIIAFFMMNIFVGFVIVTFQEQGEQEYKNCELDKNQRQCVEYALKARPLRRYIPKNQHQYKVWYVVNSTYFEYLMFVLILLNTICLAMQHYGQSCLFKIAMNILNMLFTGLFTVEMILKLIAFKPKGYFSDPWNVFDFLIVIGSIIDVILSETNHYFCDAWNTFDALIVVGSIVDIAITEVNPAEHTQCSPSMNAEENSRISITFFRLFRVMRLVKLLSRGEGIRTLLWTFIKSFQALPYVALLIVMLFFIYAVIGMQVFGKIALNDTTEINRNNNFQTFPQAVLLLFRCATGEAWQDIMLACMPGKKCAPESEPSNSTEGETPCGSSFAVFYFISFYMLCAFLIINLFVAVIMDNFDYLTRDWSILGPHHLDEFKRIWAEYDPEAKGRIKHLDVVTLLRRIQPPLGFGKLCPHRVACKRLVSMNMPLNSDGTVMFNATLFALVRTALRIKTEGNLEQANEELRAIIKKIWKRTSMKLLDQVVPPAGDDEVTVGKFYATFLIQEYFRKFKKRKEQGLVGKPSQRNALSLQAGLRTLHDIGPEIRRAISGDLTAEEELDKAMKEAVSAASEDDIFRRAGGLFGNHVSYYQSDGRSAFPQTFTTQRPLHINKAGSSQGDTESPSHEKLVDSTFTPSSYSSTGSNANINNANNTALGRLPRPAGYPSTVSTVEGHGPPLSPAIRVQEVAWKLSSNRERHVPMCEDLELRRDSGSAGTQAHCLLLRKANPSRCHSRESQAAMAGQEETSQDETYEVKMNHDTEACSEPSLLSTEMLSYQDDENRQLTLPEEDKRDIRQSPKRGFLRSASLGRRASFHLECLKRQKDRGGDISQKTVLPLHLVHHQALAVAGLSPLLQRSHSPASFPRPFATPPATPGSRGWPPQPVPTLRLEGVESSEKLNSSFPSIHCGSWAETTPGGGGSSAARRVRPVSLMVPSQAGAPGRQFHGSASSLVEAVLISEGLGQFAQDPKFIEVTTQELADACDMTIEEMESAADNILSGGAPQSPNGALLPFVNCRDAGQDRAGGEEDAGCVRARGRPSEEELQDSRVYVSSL

hERG [4] = biological target: T2, hERG
NaV1.5 [5] = biological target: T1, NaV1.5; experiment: Second IonWorks Quattro NaV1.5 screen (GSK, Q2); conditions: second independent Quattro screening; −log10 of IC50 in Molar; 0.0 = pIC50 ≤ 0 fitted
CaV1.2 = CaV1.2 (Homo sapiens, UniProt Q13936); experiment: IonWorks Quattro CaV1.2 screen (AstraZeneca, Q)
[6] = IonWorks Quattro, −log10 of IC50 in Molar, Hill n = 1, 0.0 = pIC50 ≤ 0 fitted

CCN(CC)CCNC(=O)c1c(C)[nH]c(/C=C2\C(=O)Nc3ccc(F)cc32)c1C [Sunitinib]
NaV1.5 pIC50 (Q) (NaV1.5 [1]): 4.8

N[C@@H](CC(=O)N1CCn2c(nnc2C(F)(F)F)C1)Cc1cc(F)c(F)cc1F [Sitagliptin]
IC50 (hERG [2]): 0.501 mM

C[C@@H](O)[C@H]1C(=O)N2C(C(=O)O)=C(S[C@@H]3CN[C@H](CNS(N)(=O)=O)C3)[C@H](C)[C@H]12 [Doripenem]
NaV1.5 pIC50 (Q) (NaV1.5 [1]; [6]): 2.8 | IC50 (hERG [3]): 7.94 mM

Cc1c(O)cccc1C(=O)N[C@@H](CSc1ccccc1)[C@H](O)CN1C[C@H]2CCCC[C@H]2C[C@H]1C(=O)NC(C)(C)C [Nelfinavir]
NaV1.5 pIC50 (Q) (NaV1.5 [1]): 4.1 | KCNQ1 pIC50 (Q) (KCNQ1/MinK): 4.1

CO[C@H]1C[C@@H]2CC[C@@H](C)[C@@](O)(O2)C(=O)C(=O)N2CCCC[C@H]2C(=O)O[C@H]([C@H](C)C[C@@H]2CC[C@@H](OCCO)[C@H](OC)C2)CC(=O)[C@H](C)/C=C(\C)[C@@H](O)[C@@H](OC)C(=O)[C@H](C)C[C@H](C)/C=C/C=C/C=C/1C [Everolimus]
IC50 (hERG [2]): 0.794 mM | IC50 (hERG [3]): 15.8 mM

O=C(O[C@H]1CN2CCC1CC2)N1CCc2ccccc2[C@@H]1c1ccccc1 [Solifenacin]
Kv4.3 pIC50 (Q) (Kv4.3/KChIP2.2): 4.3

Cc1cn(-c2cc(NC(=O)c3ccc(C)c(Nc4nccc(-c5cccnc5)n4)c3)cc(C(F)(F)F)c2)cn1 [Nilotinib]
hERG pIC50 (Q) (hERG [4]): 4.2

Cc1nc(Nc2ncc(C(=O)Nc3c(C)cccc3Cl)s2)cc(N2CCN(CCO)CC2)n1.O [Dasatinib]
NaV1.5 pIC50 (Q2) (NaV1.5 [5]): 3.4 | CaV1.2 pIC50 (Q) (CaV1.2): 3.4

O=C(O)c1ccc(-n2nc(-c3ccccc3O)nc2-c2ccccc2O)cc1 [Deferasirox]
Kv4.3 pIC50 (Q) (Kv4.3/KChIP2.2): 4.3

CC1=NN(c2ccc(C)c(C)c2)C(=O)/C1=N\Nc1cccc(-c2cccc(C(=O)O)c2)c1O [Eltrombopag]
NaV1.5 pIC50 (Q2) (NaV1.5 [5]): 3.5 | NaV1.5 pIC50 (Q) (NaV1.5 [1]; [6]): 3.8

CCCc1nc(C)c2c(=O)[nH]c(-c3cc(S(=O)(=O)N4CCN(CC)CC4)ccc3OCC)nn12 [Vardenafil]
KCNQ1 pIC50 (Q) (KCNQ1/MinK): 3.2

O=C1c2cccc3c2[C@H](CCC3)CN1[C@@H]1CN2CCC1CC2 [Palonosetron]
KCNQ1 pIC50 (Q) (KCNQ1/MinK): 4.3

— article PMC4266452, “Prediction of Thorough QT study results using action potential simulations based on ion channel screens” (Journal of Pharmacological and Toxicological Methods, 2014)
